{
  "sequences": {"note": "The chains behind the UniProt entries cited, without tags or fusion partners.", "UniProt Q86WV6, whole entry H232R": "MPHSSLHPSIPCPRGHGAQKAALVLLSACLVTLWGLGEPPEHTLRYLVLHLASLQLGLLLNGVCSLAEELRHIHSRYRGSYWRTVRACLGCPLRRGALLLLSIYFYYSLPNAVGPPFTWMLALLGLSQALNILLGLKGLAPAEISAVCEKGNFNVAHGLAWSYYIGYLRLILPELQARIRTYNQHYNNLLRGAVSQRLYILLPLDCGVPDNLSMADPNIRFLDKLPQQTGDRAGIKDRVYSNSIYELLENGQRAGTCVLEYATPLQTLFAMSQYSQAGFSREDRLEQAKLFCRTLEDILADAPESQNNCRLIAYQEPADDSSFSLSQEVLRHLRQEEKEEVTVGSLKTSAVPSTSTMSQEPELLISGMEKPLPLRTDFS"},
  "source": "patent US12318403B2",
  "about": "“2′3′-cyclic dinucleotides and prodrugs thereof” (INSTITUTE OF ORGANIC CHEMISTRY AND BIOCHEMISTRY ASCR, V.V.I., priority 2019, dated 2025)",
  "data": [
    {"molecular_target": "human wild type STING (WT STING) (Homo sapiens, UniProt Q86WV6, H232R)", "assay": "293T WT STING standard reporter assay", "assay_type": "cell-based", "conditions": "293T WT STING EC50, 293T wtSTING-FL cells; standard reporter assay without digitonin; 7 hours; ISRE firefly luciferase", "units": {"EC50": "nM"}, "values": [
      {"smiles": "CCCCCCCC(=O)Oc1ccc(CSP2(=O)OC[C@H]3O[C@@H](n4cnc5c(N)ncnc54)[C@H](F)[C@@H]3OCP(=O)(O)OC[C@H]3O[C@@H](n4cnc5c(=O)[nH]c(N)nc54)[C@H](O2)[C@@H]3F)cc1", "note": "(single isomer, unassigned) [Compound 34a]", "EC50": 170},
      {"smiles": "CCCCCCCCCCCC(=O)Oc1ccc(CSP2(=O)OC[C@H]3O[C@@H](n4cnc5c(N)ncnc54)[C@H](F)[C@@H]3OCP(=O)(O)OC[C@H]3O[C@@H](n4cnc5c(=O)[nH]c(N)nc54)[C@H](O2)[C@@H]3F)cc1", "note": "(single isomer, unassigned) [Compound 38b]", "EC50": 40},
      {"smiles": "CCCCCCCC(=O)Oc1ccc(CSP2(=O)OC[C@H]3O[C@@H](n4cnc5c(N)ncnc54)[C@H](F)[C@@H]3OCP(=O)(O)OC[C@H]3O[C@@H](n4cnc5c(=O)[nH]c(N)nc54)[C@H](O2)[C@@H]3F)cc1", "note": "(single isomer, unassigned) [Compound 34b]", "EC50": 350},
      {"smiles": "CCCCCCCCOC(=O)OCSP1(=O)OC[C@H]2O[C@@H](n3cnc4c(N)ncnc43)[C@H](F)[C@@H]2OCP(=O)(O)OC[C@H]2O[C@@H](n3cnc4c(=O)[nH]cnc43)[C@H](O1)[C@@H]2F", "note": "(stereo partly drawn) [Compound 70b, {[(1S,6R,8R,9R,10R,16R,18R,19R)-8-(6-amino-9H-purin-9-yl)-9,19-difluoro-13-hydroxy-3,13-dioxo-18-(6-oxo-6,9-dihydro-1H-purin-9-yl)-2,4,7,11,14,17-hexaoxa-3λ^5,13λ^5-diphosphatricyclo[14.2.1.0^6,10]nonadecan-3-yl]sulfanyl}methyl octyl carbonate]", "EC50": 900},
      {"smiles": "CCCCCCCCCCCCOC(=O)OCSP1(=O)OC[C@H]2O[C@@H](n3cnc4c(N)ncnc43)[C@H](F)[C@@H]2OCP(=O)(O)OC[C@H]2O[C@@H](n3cnc4c(=O)[nH]c(N)nc43)[C@H](O1)[C@@H]2F", "note": "(stereo partly drawn) [Compound 59b, {[(1S,6R,8R,9R,10R,16R,18R,19R)-18-(2-amino-6-oxo-6,9-dihydro-1H-purin-9-yl)-8-(6-amino-9H-purin-9-yl)-9,19-difluoro-13-hydroxy-3,13-dioxo-2,4,7,11,14,17-hexaoxa-3λ^5,13λ^5-diphosphatricyclo[14.2.1.0^6,10]nonadecan-3-yl]sulfanyl}methyl dodecyl carbonate]", "EC50": 80},
      {"smiles": "CCCCCCOC(=O)OCSP1(=O)OC[C@H]2O[C@@H](n3cnc4c(N)ncnc43)[C@H](F)[C@@H]2OCP(=O)(O)OC[C@H]2O[C@@H](n3cnc4c(=O)[nH]cnc43)[C@H](O1)[C@@H]2F", "note": "(stereo partly drawn) [Compound 67b, {[(1S,6R,8R,9R,10R,16R,18R,19R)-8-(6-amino-9H-purin-9-yl)-9,19-difluoro-13-hydroxy-3,13-dioxo-18-(6-oxo-6,9-dihydro-1H-purin-9-yl)-2,4,7,11,14,17-hexaoxa-3λ^5,13λ^5-diphosphatricyclo[14.2.1.0^6,10]nonadecan-3-yl]sulfanyl}methyl hexyl carbonate]", "EC50": 3800},
      {"smiles": "CCCCCCCCCC(=O)OCSP1(=O)OC[C@H]2O[C@@H](n3cnc4c(N)ncnc43)[C@H](F)[C@@H]2OCP(=O)(O)OC[C@H]2O[C@@H](n3cnc4c(=O)[nH]cnc43)[C@H](O1)[C@@H]2F", "note": "(single isomer, unassigned) [Compound 75b]", "EC50": 100},
      {"smiles": "CC(C)(C)C(=O)OCSP1(=O)OC[C@H]2O[C@@H](n3cnc4c(N)ncnc43)[C@H](F)[C@@H]2OCP(=O)(O)OC[C@H]2O[C@@H](n3cnc4c(=O)[nH]c(N)nc43)[C@H](O1)[C@@H]2F", "note": "(single isomer, unassigned) [Compound 32b]", "EC50": 600},
      {"smiles": "CCCCCCCCCC(=O)Oc1ccc(CSP2(=O)OC[C@H]3O[C@@H](n4cnc5c(N)ncnc54)[C@H](F)[C@@H]3OCP(=O)(O)OC[C@H]3O[C@@H](n4cnc5c(=O)[nH]c(N)nc54)[C@H](O2)[C@@H]3F)cc1", "note": "(single isomer, unassigned) [Compound 35a]", "EC50": 30},
      {"smiles": "CCCCCC(=O)Oc1ccc(C(=O)OCSP2(=O)OC[C@H]3O[C@@H](n4cnc5c(N)ncnc54)[C@H](F)[C@@H]3OCP(=O)(O)OC[C@H]3O[C@@H](n4cnc5c(=O)[nH]c(N)nc54)[C@H](O2)[C@@H]3F)cc1", "note": "(stereo partly drawn) [Compound 60b, {[(1S,6R,8R,9R,10R,16R,18R,19R)-18-(2-amino-6-oxo-6,9-dihydro-1H-purin-9-yl)-8-(6-amino-9H-purin-9-yl)-9,19-difluoro-13-hydroxy-3,13-dioxo-2,4,7,11,14,17-hexaoxa-3λ^5,13λ^5-diphosphatricyclo[14.2.1.0^6,10]nonadecan-3-yl]sulfanyl}methyl 4-(hexanoyloxy)benzoate]", "EC50": 400},
      {"smiles": "CCCC(=O)Oc1ccc(CSP2(=O)OC[C@H]3O[C@@H](n4cnc5c(N)ncnc54)[C@H](F)[C@@H]3OCP(=O)(O)OC[C@H]3O[C@@H](n4cnc5c(=O)[nH]c(N)nc54)[C@H](O2)[C@@H]3F)cc1", "note": "(single isomer, unassigned) [Compound 36a]", "EC50": 450},
      {"smiles": "CCCCCCCCCC(=O)OCSP1(=O)OC[C@H]2O[C@@H](n3cnc4c(N)ncnc43)[C@H](F)[C@@H]2OCP(=O)(O)OC[C@H]2O[C@@H](n3cnc4c(=O)[nH]cnc43)[C@H](O1)[C@@H]2F", "note": "(single isomer, unassigned) [Compound 75a]", "EC50": 200},
      {"smiles": "CC(C)(C)C(=O)OCOc1ccc(CSP2(=O)OC[C@H]3O[C@@H](n4cnc5c(N)ncnc54)[C@H](F)[C@@H]3OCP(=O)(O)OC[C@H]3O[C@@H](n4cnc5c(=O)[nH]cnc54)[C@H](O2)[C@@H]3F)cc1", "note": "(single isomer, unassigned) [Compound 51a]", "EC50": 1600},
      {"smiles": "CCCCCCCCCCCCCCCC(=O)OCSP1(=O)OC[C@H]2O[C@@H](n3cnc4c(N)ncnc43)[C@H](F)[C@@H]2OCP(=O)(O)OC[C@H]2O[C@@H](n3cnc4c(=O)[nH]cnc43)[C@H](O1)[C@@H]2F", "note": "(single isomer, unassigned) [Compound 64b]", "EC50": 10},
      {"smiles": "CCCCCCCCCCCCCC(=O)OCSP1(=O)OC[C@H]2O[C@@H](n3cnc4c(N)ncnc43)[C@H](F)[C@@H]2OCP(=O)(O)OC[C@H]2O[C@@H](n3cnc4c(=O)[nH]cnc43)[C@H](O1)[C@@H]2F", "note": "(single isomer, unassigned) [Compound 68a]", "EC50": 10},
      {"smiles": "CCCCCCCCCCCC(=O)OCSP1(=O)OC[C@H]2O[C@@H](n3cnc4c(N)ncnc43)[C@H](F)[C@@H]2OCP(=O)(O)OC[C@H]2O[C@@H](n3cnc4c(=O)[nH]cnc43)[C@H](O1)[C@@H]2F", "note": "(single isomer, unassigned) [Compound 56a]", "EC50": 60},
      {"smiles": "CCCCCCCCCCCC(=O)OCSP1(=O)OC[C@H]2O[C@@H](n3cnc4c(N)ncnc43)[C@H](F)[C@@H]2OCP(=O)(O)OC[C@H]2O[C@@H](n3cnc4c(=O)[nH]cnc43)[C@H](O1)[C@@H]2F", "note": "(single isomer, unassigned) [Compound 56b]", "EC50": 30},
      {"smiles": "CCCCCCCCCCOC(=O)OCSP1(=O)OC[C@H]2O[C@@H](n3cnc4c(N)ncnc43)[C@H](F)[C@@H]2OCP(=O)(O)OC[C@H]2O[C@@H](n3cnc4c(=O)[nH]cnc43)[C@H](O1)[C@@H]2F", "note": "(stereo partly drawn) [Compound 71b, {[(1S,6R,8R,9R,10R,16R,18R,19R)-8-(6-amino-9H-purin-9-yl)-9,19-difluoro-13-hydroxy-3,13-dioxo-18-(6-oxo-6,9-dihydro-1H-purin-9-yl)-2,4,7,11,14,17-hexaoxa-3λ^5,13λ^5-diphosphatricyclo[14.2.1.0^6,10]nonadecan-3-yl]sulfanyl}methyl decyl carbonate]", "EC50": 200},
      {"smiles": "CCCCCCCCCCCCCCCC(=O)OCSP1(=O)OC[C@H]2O[C@@H](n3cnc4c(N)ncnc43)[C@H](F)[C@@H]2OCP(=O)(O)OC[C@H]2O[C@@H](n3cnc4c(=O)[nH]cnc43)[C@H](O1)[C@@H]2F", "note": "(single isomer, unassigned) [Compound 64a]", "EC50": 7},
      {"smiles": "CCCCCCCCCCCCCCOC(=O)OCSP1(=O)OC[C@H]2O[C@@H](n3cnc4c(N)ncnc43)[C@H](F)[C@@H]2OCP(=O)(O)OC[C@H]2O[C@@H](n3cnc4c(=O)[nH]cnc43)[C@H](O1)[C@@H]2F", "note": "(stereo partly drawn) [Compound 72b, {[(1S,6R,8R,9R,10R,16R,18R,19R)-8-(6-amino-9H-purin-9-yl)-9,19-difluoro-13-hydroxy-3,13-dioxo-18-(6-oxo-6,9-dihydro-1H-purin-9-yl)-2,4,7,11,14,17-hexaoxa-3λ^5,13λ^5-diphosphatricyclo[14.2.1.0^6,10]nonadecan-3-yl]sulfanyl}methyl tetradecyl carbonate]", "EC50": 80},
      {"smiles": "CC(C)(C)C(=O)OCOc1ccc(CSP2(=O)OC[C@H]3O[C@@H](n4cnc5c(N)ncnc54)[C@H](F)[C@@H]3OCP(=O)(O)OC[C@H]3O[C@@H](n4cnc5c(=O)[nH]cnc54)[C@H](O2)[C@@H]3F)cc1", "note": "(single isomer, unassigned) [Compound 51b]", "EC50": 100},
      {"smiles": "CCCCCCCCCCCC(=O)Oc1ccc(CSP2(=O)OC[C@H]3O[C@@H](n4cnc5c(N)ncnc54)[C@H](F)[C@@H]3OCP(=O)(O)OC[C@H]3O[C@@H](n4cnc5c(=O)[nH]c(N)nc54)[C@H](O2)[C@@H]3F)cc1", "note": "(single isomer, unassigned) [Compound 38a]", "EC50": 10},
      {"smiles": "CCCCCC(=O)OCSP1(=O)OC[C@H]2O[C@@H](n3cnc4c(N)ncnc43)[C@H](F)[C@@H]2OCP(=O)(O)OC[C@H]2O[C@@H](n3cnc4c(=O)[nH]cnc43)[C@H](O1)[C@@H]2F", "note": "(stereo partly drawn) [Compound 65b, {[(1S,6R,8R,9R,10R,16R,18R,19R)-8-(6-amino-9H-purin-9-yl)-9,19-difluoro-13-hydroxy-3,13-dioxo-18-(6-oxo-6,9-dihydro-1H-purin-9-yl)-2,4,7,11,14,17-hexaoxa-3λ^5,13λ^5-diphosphatricyclo[14.2.1.0^6,10]nonadecan-3-yl]sulfanyl}methyl hexanoate]", "EC50": 1600},
      {"smiles": "CC(C)OC(=O)OCSP1(=O)OC[C@H]2O[C@@H](n3cnc4c(N)ncnc43)[C@H](F)[C@@H]2OCP(=O)(O)OC[C@H]2O[C@@H](n3cnc4c(=O)[nH]c(N)nc43)[C@H](O1)[C@@H]2F", "note": "(single isomer, unassigned) [Compound 33a]", "EC50": 14700},
      {"smiles": "CCCCCC(=O)Oc1ccc(C(=O)Oc2ccc(CSP3(=O)OC[C@H]4O[C@@H](n5cnc6c(N)ncnc65)[C@H](F)[C@@H]4OCP(=O)(O)OC[C@H]4O[C@@H](n5cnc6c(=O)[nH]c(N)nc65)[C@H](O3)[C@@H]4F)cc2)cc1", "note": "(single isomer, unassigned) [Compound 40a]", "EC50": 10000},
      {"smiles": "CC(C)OC(=O)OCSP1(=O)OC[C@H]2O[C@@H](n3cnc4c(N)ncnc43)[C@H](F)[C@@H]2OCP(=O)(O)OC[C@H]2O[C@@H](n3cnc4c(=O)[nH]c(N)nc43)[C@H](O1)[C@@H]2F", "note": "(single isomer, unassigned) [Compound 33b]", "EC50": 1400}
    ]}
  ]
}
